Test results: patent publication US8703098B2, “Labelled adrenomedullin derivatives and their use for imaging and therapy” (Institut de Cardiologie de Montreal, priority 2004, dated 2014)

Tests used:
[1] = In vivo single-pass pulmonary clearance of 125I-rAM(1-50) in dogs, single bolus indicator-dilution technique; design: species or system dog; conditions: drug as intravenous bolus of 100 nmol 5 min before second experiment, mean ±S.E.M.
Procedure: Dogs were anaesthetized and prepared as described in detail in reference, which is hereby incorporated by reference. A catheter was inserted into the carotid artery and positioned just above the aortic valve. This catheter was connected to a peristaltic pump for automated blood withdrawal. Another catheter was placed into the jugular vein and positioned in the right ventricular outflow tract to allow bolus injection of the study tracers. A bolus was prepared by adding 3.3 μCi of 125I-rAM(1-50) (2.9 pmol) to 3 ml of Evans-Blue-dye labelled albumin and 0.9% saline to give a final volume of 6 ml. The mixture was separated into three equal parts for the two successive experiments in each animal and to realize dilution-curve standards. A baseline single-bolus indicator-dilution experiment was performed. After 5 min, CGRP (n=7), hAM(22-52) (n=8) and unlabelled rAM(1-50) (n=9) were administered as an intravenous bolus of 100 nmol and 5 min later a second indicator dilution experiment was performed.
The collected samples were processed and indicator-dilution curves constructed and analyzed as described in previously cited reference 13. […]
(§1) Multiple group comparisons were performed by factorial ANOVA, followed, when a significant interaction was found, by the Bonferroni/Dunn t test. […] In the canine experiments, the effect of drugs on AM extraction was analyzed by two-tailed paired Student's t tests. […]

[2] = Biodistribution and pulmonary retention of 125I-rAM(1-50) in rats after intravenous or intra-arterial injection; assay type: in vivo, rat; conditions: drug given 5 min before tracer
Procedure: (§2) All experimental procedures were performed in accordance with the regulations and ethical guidelines from Canadian Council for the Care of Laboratory Animals, and received approval by the Animal Ethics and Research Committee of the Montreal Heart Institute. Male Sprague-Dawley rats (Charles River), weighing between 400-450 g, were anaesthetized by an initial intramuscular dose of xylazine (10 mg/kg of body weight) and ketamine (50 mg/kg of body weight), followed by an intra-peritoneal injection of heparin (2000 units; Sigma). Catheters were inserted into the right carotid artery and jugular vein. Heart rate and systemic blood pressure were monitored continuously. […] Venous and arterial blood samples (3 ml) were collected and centrifuged (1875 g, 15 min, 4° C.) and the plasma saved for subsequent measurement of irAM (immunoreactive AM). A similar amount of saline was infused into the animals to prevent hypovolaemia.
(§3) The animals were then killed and the lungs, liver, kidneys (en bloc with the adrenal glands) and heart were removed and gravity drained. […] Results are expressed as a percentage of total radioactivity injected. […]
as §1

[3] = Plasma kinetics of 125I-rAM(1-50) after single intravenous injection in rats; assay type: in vivo, rat; conditions: drug given 5 min before the 125I-rAM(1-50) bolus
Procedure: as §2, §3, §1

In the case of “CGRP: calcitonin gene-related peptide (Phoenix Pharmaceuticals)”, the “mean single-pass pulmonary extraction of 125I-rAM(1-50) after administration of the drug” value [1] is reported as 40.6±2.9%, the “effect of prior administration on biodistribution of 125I-rAM(1-50)” value [2] is reported as “did not significantly modify this distribution” and the “effect of prior administration on pulmonary first-pass retention of 125I-rAM(1-50) (intra-arterial compared with intravenous)” value [2] is reported as “not affected”. The “effect of administration prior to radiolabelled rAM(1-50) on its plasma kinetics” value [3] was “did not modify plasma kinetics”.
